Assay results reported in patent US20250042857A1, “SOS1 Inhibitor With Pyrido-Fused Six-Membered Ring Structure” (HAIHE BIOPHARMA CO., LTD., priority 2021, published 2025).

Protein sequences, listed by entry. Tags and fused reporters are not part of them. Lines headed by an entry give the natural chain unless they say otherwise; changes in a name come on top.
UniProt Q07889, whole entry, stated change not applied: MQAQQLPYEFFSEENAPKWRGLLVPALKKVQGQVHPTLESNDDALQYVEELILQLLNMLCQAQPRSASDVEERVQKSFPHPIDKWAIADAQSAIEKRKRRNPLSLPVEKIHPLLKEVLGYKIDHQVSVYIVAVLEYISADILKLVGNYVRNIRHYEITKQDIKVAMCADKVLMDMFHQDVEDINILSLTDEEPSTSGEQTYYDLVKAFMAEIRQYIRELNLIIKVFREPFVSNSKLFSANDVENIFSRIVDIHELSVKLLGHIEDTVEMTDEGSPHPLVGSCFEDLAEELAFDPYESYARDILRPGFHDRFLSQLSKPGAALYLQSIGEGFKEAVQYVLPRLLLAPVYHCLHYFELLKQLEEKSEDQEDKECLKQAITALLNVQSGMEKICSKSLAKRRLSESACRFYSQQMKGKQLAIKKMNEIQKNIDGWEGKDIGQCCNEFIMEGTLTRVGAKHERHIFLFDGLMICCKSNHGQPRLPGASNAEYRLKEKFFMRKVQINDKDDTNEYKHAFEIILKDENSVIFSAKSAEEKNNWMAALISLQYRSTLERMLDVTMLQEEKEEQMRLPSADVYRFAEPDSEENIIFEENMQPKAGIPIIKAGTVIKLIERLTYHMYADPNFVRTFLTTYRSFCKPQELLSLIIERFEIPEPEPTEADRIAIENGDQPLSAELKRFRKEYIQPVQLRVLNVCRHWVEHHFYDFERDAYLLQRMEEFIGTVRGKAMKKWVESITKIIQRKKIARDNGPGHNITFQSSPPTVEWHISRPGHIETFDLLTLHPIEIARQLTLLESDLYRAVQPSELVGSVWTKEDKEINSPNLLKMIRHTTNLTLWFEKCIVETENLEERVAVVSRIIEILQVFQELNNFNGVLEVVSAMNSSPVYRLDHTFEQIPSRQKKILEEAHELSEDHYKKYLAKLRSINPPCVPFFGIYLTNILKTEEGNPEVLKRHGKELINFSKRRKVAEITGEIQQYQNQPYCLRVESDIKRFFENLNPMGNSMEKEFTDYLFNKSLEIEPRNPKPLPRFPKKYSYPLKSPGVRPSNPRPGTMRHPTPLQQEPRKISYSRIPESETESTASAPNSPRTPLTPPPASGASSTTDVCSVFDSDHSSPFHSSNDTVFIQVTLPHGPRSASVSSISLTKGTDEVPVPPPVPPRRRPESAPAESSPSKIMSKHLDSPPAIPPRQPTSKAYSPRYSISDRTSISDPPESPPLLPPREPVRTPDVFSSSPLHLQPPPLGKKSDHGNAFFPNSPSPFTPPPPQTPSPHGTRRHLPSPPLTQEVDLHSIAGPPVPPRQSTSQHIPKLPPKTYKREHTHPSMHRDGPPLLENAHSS

Columns and labels:
KRAS-G12C/SOS1 = KRAS-G12C/SOS1 (Homo sapiens (Human), UniProt Q07889); assay: Detection of inhibitory effects of compounds on KRAS-G12C/SOS1 (KRASG12C/SOS binding kit, HTRF); conditions: read-out: IC50, inhibitory activity on interaction of KRAS-G12C/SOS1, Em665/620
Excerpt: Experimental objective: The inhibitory effects of the tested compounds on KRAS-G12C/SOS1 were detected. IC50 was used to characterize the inhibitory ability of the compounds on the KRAS-G12C/SOS1. The lower IC50 value indicated the stronger inhibitory ability. BI-3406 was used as a positive control compound.
Experimental reagents: KRASG12C/SOS binding kit (Cisbio, cat. 63ADK000CB16PEG); DMSO (Sigma, cat. D8418-1L); and 384-well white plate (PerkinElmer, cat. 6007290)
• 1. Preparation of compounds: the test compounds were dissolved in 100% DMSO to obtain 10 mM stock solutions and the stock solutions were stored in a refrigerator in the dark. • 2. Kinase reaction process:
Preparation of compounds: the test compounds had the concentration of 5,000 nM and diluted in a 384-well plate into a 100% DMSO solution at the 200-fold final concentration, and the compounds were diluted 3-fold with 10 concentrations. 50 nL of the compounds at the 200-fold final concentration were transferred to the plate of interest, the 384-well plate, using a dispenser Echo 550. 50 nL of 100% DMSO was added to each negative control well and positive control well.
A Tag1-SOS1 solution at the 4-fold final concentration was prepared using a diluent buffer.
2.5 μL of the Tag1-SOS1 solution at the 4-fold final concentration was added to the 384-well plate.
A Tag2-KRAS-G12C solution at the 4-fold final concentration was prepared using the diluent buffer.
2.5 μL of the Tag2-KRAS-G12C solution at the 4-fold final concentration was respectively added into compound wells and the positive control wells; and 2.5 μL of the diluent buffer was added to the negative control wells.
The 384-well plate was centrifuged at 1,000 rpm for 30 seconds, shaken and mixed uniformly, and incubated at room temperature for 15 minutes.
An Anti-Tag1-TB3+ solution at the 1-fold final concentration and an Anti-Tag2-XL665 solution at the 1-fold final concentration were prepared using a detection buffer, the two solutions were mixed uniformly to obtain a Mix solution, and 5 μL of the Mix solution was added into each well.
The 384-well plate was centrifuged at 1,000 rpm for 30 seconds, shaken and mixed uniformly, and incubated at 4° C. for 120 minutes.
Em665/620 was read using an Envision microplate reader.
Inhibition %=(Max signal−Compound signal)/(Max signal−Min signal)×100 Calculation formula • wherein the Min signal was the mean value of the negative control wells, and the Max signal was the mean value of the positive control wells.
A dose-response curve was fitted using the log value of the concentration as an X axis and the percentage of the inhibitory rate as a Y axis by using the log(inhibitor) vs. response-variable slope of an analytical software GraphPadPrism5, thereby obtaining the IC50 value of each compound on an enzyme activity.

p-ERK of PC-9 cells = assay: p-ERK HTRF assay in PC-9 cells; conditions: read-out: IC50, inhibitory activity on p-ERK of PC-9 cells, PC-9 lung cancer cells, 1 hour treatment
Method: IC50 Values of Compounds Determined by p-ERK HTRF Assay in PC-9 Cells
Experimental objective: an inhibitory effect of the test compounds on the phosphorylation of PC-9ERK of lung cancer cells at a cellular level was evaluated by detecting the phosphorylation of ERK.
• PRMI 1640 medium (Invitrogen-11875093) • 0.25% pancreatin (Invitrogen-25200056) • Phosphoric acid buffer salt solution (PBS, pH 7.4) (Invitrogen-10010023) • Double-antibody (PS) (Invitrogen-15140122) • Fetal bovine serum (FBS) (Gibco-10091148) • Trypan blue (Gibco-15250061) • 10-cm culture dish (Corning-430167) • 10-mL pipette (Costar-4488) • Pipettor (Sartorius-17009031) • 15-mL centrifuge tube (Corning-430052) • 50-mL centrifuge tube (Corning-430829) • Cryotube (Thermo-377267) • 1.5-mL EP tube (Axygen-MCT-150-C-S) • Cell incubator (Thermo-371) • Microscope (Olympus-CKX41) • Centrifuge (Flying Pigeon-TDL-80-2B) • Cell counter (Countstar-IC-1000) • Envision (Perkin Elmer) • Spark 10M (TECAN) • Phospho-ERK1/2 (Thr202/Tyr204) Experimental kit (Cisbio, Cat. No. 64AERPEG) • PC-9 cells: RPMI1640+10% FBS+1% PS
• 1) PBS, 0.25% pancreatin, and a cell culture medium were placed in a water-bath kettle at 37° C. for preheating; • 2) cells were observed under a microscope, a fusion degree was evaluated, and no bacterial and fungi pollution was confirmed; • 3) a culture solution was removed, the cells were washed with 5 mL of PBS and digested with 2 mL of the 0.25% trypsin, the digestion was terminated with 10 mL of the fresh cell culture medium, a culture dish was rinsed, and the cells were transferred to a 15-mL centrifuge tube; • 4) the collected cells were centrifuged at 1,000 rpm for 5 minutes; • 5) after the centrifugation, the supernatant was discarded, the cells were resuspended in 5 mL of the cell culture medium, 20 μL of the resuspended cells were aspirated, and the number and viability of viable cells were recorded; • 6) the cell culture medium was used and the cell density was adjusted (PC-9:10,000 cells/well, and 45 μL per well); • 7) in a 384-well plate, 45 μL of a cell suspension per well was transferred according to an experimental design figure; and • 8) the cells were incubated overnight at 37° C. and 5% CO2.
• 1) The compounds were diluted from the stock concentration to 10 mM with 100% DMSO (Trametinib was diluted to 1 mM), then 3-fold diluted into 10 points (5 μL of the diluted compounds with the concentration of 10 mM were transferred to 10 μL of the DMSO in an LDV plate), and centrifuged at 1,000 rpm/min for 1 minute; • 2) 5 μL of the diluted compounds of step 1) were transferred to an inter plate 1 containing 45 μL of the cell culture medium (the compounds were diluted from 1,000× to 100×); • 3) 5 μL of the diluted compounds of step 2) were transferred to an inter plate 2 containing 45 μL of the cell culture medium (the compounds were diluted from 100× to 10×); • 4) 5 μL of the compounds were pipetted from the inter plate 2 into a cell culture plate (the compounds were diluted from 10 folds to 1 fold), the final concentrations of the test compounds were 10,000 nM, 3333.33 nM, 1111.11 nM, 370.37 nM, 123.46 nM, 41.15 nM, 13.72 nM, 4.57 nM, 1.52 nM, and […], the solution was centrifuged at 1,000 rpm/min for 1 minute, and the final content of the DMSO was 0.1%; and • 5) the cells were treated in an incubator at 37° C. for 1 hour. […]

Row | SMILES | IC50 (KRAS-G12C/SOS1) | IC50 (p-ERK of PC-9 cells)
1 | COC1CCC(O)(c2cc3c(N[C@H](C)c4cccc(C(F)F)c4F)ccnc3cn2)CC1 (single isomer, unassigned) | < 100 nM | < 300 nM
2 | C[C@@H](Nc1ccnc2cnc(C3(O)CCC(C)(O)CC3)cc12)c1cccc(C(F)F)c1F (single isomer, unassigned) | < 100 nM | < 300 nM
3 | COc1nc(C2(O)CCC(O)CC2)cc2c(N[C@H](C)c3cccc(C(F)F)c3F)cc(C)nc12 (single isomer, unassigned) | < 100 nM | 300 to 1000 nM
4 | C[C@@H](Nc1ccnc2cnc(C3(O)CCC(O)CC3)cc12)c1cccc(C(F)F)c1F (single isomer, unassigned) [B-80-P1] | < 100 nM | < 300 nM
5 | C[C@@H](Nc1ccnc2cnc(C3(O)CCC(C(C)(C)O)CC3)cc12)c1cccc(C(F)F)c1F (single isomer, unassigned) [B-101-P1] | 100 to 500 nM | 
6 | CNC(=O)C1CCC(O)(c2cc3c(N[C@H](C)c4cccc(C(F)F)c4F)ccnc3cn2)CC1 (single isomer, unassigned) |  | < 300 nM
7 | C[C@@H](Nc1ccnc2cnc(C3(O)CCN(C(=O)CO)CC3)cc12)c1cccc(C(C)(F)F)c1F | < 100 nM | < 300 nM
8 | COC1(c2cc3c(N[C@H](C)c4cccc(C(F)F)c4F)ccnc3cn2)CCC(N(C)C)CC1 (single isomer, unassigned) | < 100 nM | 
9 | C[C@@H](Nc1ccnc2cnc(C3(O)CCC(C(C)(C)O)CC3)cc12)c1cccc(C(F)F)c1F (single isomer, unassigned) [B-101-P2] |  | < 300 nM
10 | C[C@@H](Nc1ccnc2cnc(C3(O)CCC(CO)CC3)cc12)c1cccc(C(F)F)c1F (single isomer, unassigned) [B-102-P1] |  | 300 to 1000 nM
11 | C[C@@H](Nc1ccnc2cnc(C3(O)CCC(O)CC3)cc12)c1cccc(C(F)F)c1F (single isomer, unassigned) [B-80-P2] | < 100 nM | 300 to 1000 nM
12 | COC1CCC(OC)(c2cc3c(N[C@H](C)c4cccc(C(F)F)c4F)ccnc3cn2)CC1 (single isomer, unassigned) | < 100 nM | 300 to 1000 nM
13 | CC(=O)NC1CCC(O)(c2cc3c(N[C@H](C)c4cccc(C(F)F)c4F)ccnc3cn2)CC1 (single isomer, unassigned) | < 100 nM | < 300 nM
14 | C[C@@H](Nc1ccnc2cnc(C3(O)CCC(CO)CC3)cc12)c1cccc(C(F)F)c1F (single isomer, unassigned) [B-102-P2] |  | < 300 nM
15 | Cc1nc(N2CCS(=O)(=O)CC2)cc2c(N[C@H](C)c3cccc(C(F)F)c3F)ccnc12 | < 100 nM | 300 to 1000 nM
